Read-outs that look alike come from different tables or passages of the source.
With Ramoplanin the “mean concentration in stool” value (100 μg/ml dose, day 7 of treatment, n=5 mice) was 188 μg/g of stool and the “mean concentration in stool” value (300 μg/ml dose, day 7, n=5 mice) was 310 µg/mL.
